For experiment [1], the target named is Orexin receptor type 2 (Homo sapiens, UniProt O43614). Put plainly: Radioligand Binding Assay.
In experiment [2] the target is Orexin/Hypocretin receptor type 1 (Homo sapiens, UniProt O43613). In words: Radioligand Binding Assay.

Chains of the proteins cited; added tags and fusions are not shown.
UniProt O43614, whole entry, looked up: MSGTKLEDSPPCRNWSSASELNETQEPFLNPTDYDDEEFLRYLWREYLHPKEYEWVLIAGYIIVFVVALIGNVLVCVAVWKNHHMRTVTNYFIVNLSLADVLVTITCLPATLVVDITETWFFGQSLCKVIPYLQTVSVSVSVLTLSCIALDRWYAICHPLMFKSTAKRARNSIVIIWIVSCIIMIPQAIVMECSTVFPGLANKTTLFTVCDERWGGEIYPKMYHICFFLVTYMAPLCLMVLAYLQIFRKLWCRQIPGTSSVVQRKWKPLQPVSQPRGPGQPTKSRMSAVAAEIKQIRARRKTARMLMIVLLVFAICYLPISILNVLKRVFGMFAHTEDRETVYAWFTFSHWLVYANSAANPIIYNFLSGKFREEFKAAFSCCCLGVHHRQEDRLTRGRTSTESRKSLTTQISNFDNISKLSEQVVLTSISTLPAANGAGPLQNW
UniProt O43613, whole entry, looked up: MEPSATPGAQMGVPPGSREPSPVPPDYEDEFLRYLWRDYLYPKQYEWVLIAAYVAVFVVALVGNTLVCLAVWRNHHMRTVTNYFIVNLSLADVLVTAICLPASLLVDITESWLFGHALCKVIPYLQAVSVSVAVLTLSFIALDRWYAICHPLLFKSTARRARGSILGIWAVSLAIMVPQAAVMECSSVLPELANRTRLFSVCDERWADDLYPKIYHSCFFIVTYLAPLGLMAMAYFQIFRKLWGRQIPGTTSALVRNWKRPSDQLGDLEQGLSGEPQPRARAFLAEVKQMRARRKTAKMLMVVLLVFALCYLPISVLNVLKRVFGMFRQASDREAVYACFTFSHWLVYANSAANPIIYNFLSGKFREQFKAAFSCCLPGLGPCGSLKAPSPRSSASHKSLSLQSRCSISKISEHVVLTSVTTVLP

The text below walks through data of BindingDB's records for US9062078.

For the compound `Cc1ccc(-n2nccn2)c(C(=O)N2C3CCC2C(Nc2ccc(Br)cn2)C3)n1` (configuration not stated), the inhibition constant Ki (as a rule, the dissociation constant of the complex between target and ligand, obtained from inhibition or displacement) in experiment [1] was 1100 nM; in experiment [2], 26 nM.
